Laboratory results: patent US20070026408A1, “Materials and methods for analysis of atp-binding cassette transporter gene expression” (priority 2003, published 2007)
Structures can show the parent of a compound that is named as a salt.

Tests used:
Settings in all cases: HepG2, vinblastine sulfate 25 nM, standard 24
[1] = system: abcB4; assay: DT1 microarray drug screening, drug-treated HepG2: abcB4; type: cell-based, human
Procedure: (§1) The labelled cDNA target preparation was thawed and the 150 μl added to 850 ul hybridisation buffer (500 mM sodium Phosphate pH 6.0, 1% SDS, 1% BSA, 1 mM EDTA) in a 1.5 ml microtube and heated at 95° C. for 10 min.

[2] = system: abcD4; assay: DT1 microarray drug screening, drug-treated HepG2: abcD4; type: cell-based, human
Procedure: as §1

[3] = system: abcC10; assay: DT1 microarray drug screening, drug-treated HepG2: abcC10; type: cell-based, human
Procedure: as §1

[4] = system: abcB8; assay: DT1 microarray drug screening, drug-treated HepG2: abcB8; type: cell-based, human
Procedure: as §1

[5] = system: abcC8; assay: DT1 microarray drug screening, drug-treated HepG2: abcC8; type: cell-based, human
Procedure: as §1

[6] = system: abcA8; assay: DT1 microarray drug screening, drug-treated HepG2: abcA8; type: cell-based, human
Procedure: as §1

[7] = system: abcC5; assay: DT1 microarray drug screening, drug-treated HepG2: abcC5; type: cell-based, human
Procedure: as §1

[8] = system: abcB7; assay: DT1 microarray drug screening, drug-treated HepG2: abcB7; type: cell-based, human
Procedure: as §1

[9] = system: abcA9; assay: DT1 microarray drug screening, drug-treated HepG2: abcA9; type: cell-based, human
Procedure: as §1

[10] = system: abcB6; assay: DT1 microarray drug screening, drug-treated HepG2: abcB6; type: cell-based, human
Procedure: as §1

[11] = system: abcC3; assay: DT1 microarray drug screening, drug-treated HepG2: abcC3; type: cell-based, human
Procedure: as §1

[12] = system: abcA1; assay: DT1 microarray drug screening, drug-treated HepG2: abcA1; type: cell-based, human
Procedure: as §1

[13] = system: abcB10; assay: DT1 microarray drug screening, drug-treated HepG2: abcB10
[14] = system: abcF1; assay: DT1 microarray drug screening, drug-treated HepG2: abcF1; type: cell-based, human
Procedure: as §1

[15] = system: abcC4; assay: DT1 microarray drug screening, drug-treated HepG2: abcC4; type: cell-based, human
Procedure: as §1

[16] = system: abcB3; assay: DT1 microarray drug screening, drug-treated HepG2: abcB3; type: cell-based, human
Procedure: as §1

[17] = system: abcA4; assay: DT1 microarray drug screening, drug-treated HepG2: abcA4; type: cell-based, human
Procedure: as §1

[18] = system: abcB2; assay: DT1 microarray drug screening, drug-treated HepG2: abcB2; type: cell-based, human
Procedure: as §1

[19] = system: abcA2; assay: DT1 microarray drug screening, drug-treated HepG2: abcA2; type: cell-based, human
Procedure: as §1

[20] = system: abcC2; assay: DT1 microarray drug screening, drug-treated HepG2: abcC2; type: cell-based, human
Procedure: as §1

[21] = system: abcC6; assay: DT1 microarray drug screening, drug-treated HepG2: abcC6; type: cell-based, human
Procedure: as §1

[22] = system: abcG5; assay: DT1 microarray drug screening, drug-treated HepG2: abcG5; type: cell-based, human
Procedure: as §1

[23] = system: abcB11; assay: DT1 microarray drug screening, drug-treated HepG2: abcB11; type: cell-based, human
Procedure: as §1

[24] = system: abcD1; assay: DT1 microarray drug screening, drug-treated HepG2: abcD1; type: cell-based, human
Procedure: as §1

CC[C@]1(O)C[C@@H]2CN(CCc3c([nH]c4ccccc34)[C@@](C(=O)OC)(c3cc4c(cc3OC)N(C)[C@H]3[C@@](O)(C(=O)OC)[C@H](OC(C)=O)[C@]5(CC)C=CCN6CC[C@]43[C@@H]65)C2)C1 [vin, vinblastine sulfate]
relative level of abcB4 gene expression ([1]; 4 h): 13.24
relative level of abcB4 gene expression ([1]; 8 h): 23.08
relative level of abcD4 gene expression ([2]; 2 h): 8.052
relative level of abcD4 gene expression ([2]; 4 h): 8.687
relative level of abcD4 gene expression ([2]; 8 h): 10.28
relative level of abcC10 gene expression ([3]; 2 h): 10.92
relative level of abcC10 gene expression ([3]; 4 h): 8.808
relative level of abcC10 gene expression ([3]; 8 h): 9.007
relative level of abcB8 gene expression ([4]; 2 h): 16.52
relative level of abcB8 gene expression ([4]; 4 h): 15.3408
relative level of abcB8 gene expression ([4]; 8 h): 20.22
relative level of abcC8 gene expression ([5]; 2 h): 0.3533
relative level of abcC8 gene expression ([5]; 4 h): 0.4535
relative level of abcC8 gene expression ([5]; 8 h): 0.8805
relative level of abcA8 gene expression ([6]; 2 h): 8.424
relative level of abcA8 gene expression ([6]; 4 h): 6.724
relative level of abcA8 gene expression ([6]; 8 h): 10.26
relative level of abcC5 gene expression ([7]; 2 h): 10.95
relative level of abcC5 gene expression ([7]; 4 h): 12.64
relative level of abcC5 gene expression ([7]; 8 h): 17.32
relative level of abcB7 gene expression ([8]; 2 h): 0.4619
relative level of abcB7 gene expression ([8]; 4 h): 0.3467
relative level of abcB7 gene expression ([8]; 8 h): 0.6958
relative level of abcA9 gene expression ([9]; 2 h): 12.25
relative level of abcA9 gene expression ([9]; 4 h): 10.2
relative level of abcA9 gene expression ([9]; 8 h): 18.62
relative level of abcB6 gene expression ([10]; 2 h): 8.655
relative level of abcB6 gene expression ([10]; 4 h): 8.468
relative level of abcB6 gene expression ([10]; 8 h): 7.559
relative level of abcC3 gene expression ([11]; 2 h): 12.15
relative level of abcC3 gene expression ([11]; 4 h): 10.17
relative level of abcC3 gene expression ([11]; 8 h): 11.29
relative level of abcA1 gene expression ([12]; 2 h): 6.833
relative level of abcA1 gene expression ([12]; 4 h): 5.064
relative level of abcA1 gene expression ([12]; 8 h): 6.364
relative level of abcB10 gene expression ([13]; 2 h): 4.259
relative level of abcB10 gene expression ([13]; 4 h): 3.99
relative level of abcB10 gene expression ([13]; 8 h): 5.498
relative level of abcF1 gene expression ([14]; 2 h): 7.852
relative level of abcF1 gene expression ([14]; 4 h): 7.234
relative level of abcF1 gene expression ([14]; 8 h): 5.759
relative level of abcC4 gene expression ([15]; 2 h): 5.277
relative level of abcC4 gene expression ([15]; 4 h): 5.743
relative level of abcC4 gene expression ([15]; 8 h): 6.273
relative level of abcB3 gene expression ([16]; 2 h): 9.144
relative level of abcB3 gene expression ([16]; 4 h): 8.4
relative level of abcB3 gene expression ([16]; 8 h): 14.79
relative level of abcA4 gene expression ([17]; 2 h): 11.01
relative level of abcA4 gene expression ([17]; 4 h): 9.361
relative level of abcA4 gene expression ([17]; 8 h): 15.91
relative level of abcB2 gene expression ([18]; 2 h): 8.667
relative level of abcB2 gene expression ([18]; 4 h): 8.938
relative level of abcB2 gene expression ([18]; 8 h): 8.491
relative level of abcA2 gene expression ([19]; 2 h): 7.398
relative level of abcA2 gene expression ([19]; 4 h): 6.087
relative level of abcA2 gene expression ([19]; 8 h): 9.543
relative level of abcC2 gene expression ([20]; 2 h): 1.43
relative level of abcC2 gene expression ([20]; 4 h): 1.197
relative level of abcC2 gene expression ([20]; 8 h): 1.419
relative level of abcC6 gene expression ([21]; 2 h): 8.103
relative level of abcC6 gene expression ([21]; 4 h): 8.424
relative level of abcC6 gene expression ([21]; 8 h): 9.917
relative level of abcG5 gene expression ([22]; 2 h): 6.024
relative level of abcG5 gene expression ([22]; 4 h): 6.084
relative level of abcG5 gene expression ([22]; 8 h): 4.099
relative level of abcB11 gene expression ([23]; 2 h): 7.106
relative level of abcB11 gene expression ([23]; 4 h): 7.458
relative level of abcD1 gene expression ([24]; 2 h): 10.02
relative level of abcD1 gene expression ([24]; 4 h): 9.668
relative level of abcD1 gene expression ([24]; 8 h): 8.254
